Test results published in patent publication US20060079453A1, “Hla binding peptides and their uses” (priority 2002, published 2006).
Like-named read-outs stand apart in the source and are kept apart here.

Amino acid sequences for entries named in this document (tags omitted). Residues count along the entry.
UniProt P79483, 30-266: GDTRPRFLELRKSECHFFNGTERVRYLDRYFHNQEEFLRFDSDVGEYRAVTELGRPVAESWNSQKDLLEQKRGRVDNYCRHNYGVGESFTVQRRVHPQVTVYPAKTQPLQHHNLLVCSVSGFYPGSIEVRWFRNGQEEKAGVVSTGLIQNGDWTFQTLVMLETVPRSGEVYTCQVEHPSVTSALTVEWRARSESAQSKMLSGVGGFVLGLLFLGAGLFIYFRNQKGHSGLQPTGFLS
UniProt Q30154, 30-266: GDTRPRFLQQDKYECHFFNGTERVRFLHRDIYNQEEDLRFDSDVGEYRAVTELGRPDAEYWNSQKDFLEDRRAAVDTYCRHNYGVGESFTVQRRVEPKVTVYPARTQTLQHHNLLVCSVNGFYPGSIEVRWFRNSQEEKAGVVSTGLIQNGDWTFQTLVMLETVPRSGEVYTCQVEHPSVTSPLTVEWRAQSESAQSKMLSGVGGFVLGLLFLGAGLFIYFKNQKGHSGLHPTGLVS

What was measured:
[1] = target: HLA-DR DRB1*1302 (DR13) (Homo sapiens, UniProt P01903+P01911, A100E/A169T/K41T/L162R/M171V/P40S/Q125H/Q178H/Q39Y/Q99D/R42S/S66N/T262R/V115G/W38E/Y61H); assay: biochemical; type: binding
[2] = target: HLA-DR DRB4*0101 (DR53) (Homo sapiens, UniProt P01903+P13762, G164S); assay: biochemical; type: binding
[3] = target: HLA-DR DRB1*1101 (DR11) (Homo sapiens, UniProt P01903+P01911, A100R/A169T/A87E/I96F/K41T/L162R/M171V/P40S/Q125H/Q178H/Q39Y/Q99D/R42S/S66Y/T262R/V115G/W38E); assay: biochemical; type: binding
[4] = target: HLA-DR DRB3*0101 (DR52) (Homo sapiens, UniProt P01903+P79483); assay: biochemical; type: binding
[5] = target: HLA-DR DRB1*0101 (DR1) (Homo sapiens, UniProt P01903+P01911, A100R/D57E/F55L/F60I/F76Y/I96L/L162R/M171V/P40L/Q125E/R42F/V115G/Y59C); assay: biochemical; type: binding
[6] = target: HLA-DR DRB1*0401 (DR4) (Homo sapiens, UniProt P01903+P01911, A100K/A169T/F76Y/I96L/K127E/L162R/M171V/N62H/P40V/Q125Y/R42H/S133A/S149N/S66Y/V115G/V209L/W38E); assay: biochemical; type: binding
[7] = target: HLA-DR DRB1*0701 (DR7) (Homo sapiens, UniProt P01903+P01911, A100R/A102G/A103Q/D57E/D86V/E43K/F76Y/K127E/L162R/M171V/P40G/Q125H/Q99D/R33Q/R42Y/R54Q/S133A/S66F/T210M/V115G/Y107V/Y59L/Y89S); assay: biochemical; type: binding; settings: DRB1 *0701
[8] = target: HLA-DR DRB1*0802 (DR8) (Homo sapiens, UniProt P01903+P01911, A100R/A103L/A169T/F76Y/H45Y/I96F/K41T/L162R/M171V/P40S/Q125H/Q178H/Q39Y/Q99D/R218S/R42G/S66Y/V115G/W38E); assay: biochemical; type: binding
[9] = target: HLA-DR DRB5*0101 (DR51) (Homo sapiens, UniProt P01903+Q30154); assay: biochemical; type: binding
[10] = target: HLA-DR DRB1*0301 (DR3) (Homo sapiens, UniProt P01903+P01911, A100K/A102G/A103R/A169T/F55Y/I96L/K41T/L162R/M171V/P40S/Q125H/Q178H/Q39Y/R42S/S66N/T106N/T262R/W38E/Y61H); assay: biochemical; type: binding
[11] = target: HLA-DR DRB1*0901 (DR9) (Homo sapiens, UniProt P01903+P01911, A100R/A103E/D57H/D86V/F55Y/F60I/F76Y/I96F/K127E/L162R/M171V/P40D/Q125H/Q99R/R33Q/R42F/S133A/S66N/T210M/V115G/W38K/Y107V/Y59G/Y89S); assay: biochemical; type: binding
[12] = target: HLA-A*2902 (Homo sapiens, UniProt P04439, A270S/D101N/D185E/E176V/E277Q/E87Q/F33T/G231S/H175R/I121M/I218V/I322F/K168Q/L300P/L318F/M331R/P208A/P217A/Q86L/T323A/T345S/V100A/V358M); assay: MHC molecular binding / Capture assay, IC50: A*2902
[13] = target: HLA-A*3002 (Homo sapiens, UniProt P04439, D101N/D140H/D185E/E176R/F33S/G80R/H175R/K168Q/Q94H/R138E/R41S/V100E); type: binding
[14] = read-out: Binding affinity to A*2902 (expressed as an IC50)
[15] = read-out: Binding affinity to A*3002 (expressed as an IC50)
[16] = read-out: A*2902 binding affinity (IC50)
[17] = read-out: A*3002 binding affinity (IC50)

CC[C@H](C)[C@H](NC(=O)[C@H](CO)NC(=O)[C@@H](NC(=O)[C@@H](NC(=O)[C@@H](NC(=O)[C@H](CCC(N)=O)NC(=O)[C@@H](N)CCC(=O)O)[C@@H](C)O)[C@@H](C)O)[C@@H](C)O)C(=O)N[C@H](C(=O)N[C@@H](CO)C(=O)N[C@@H](CC(C)C)C(=O)N[C@@H](Cc1ccc(O)cc1)C(=O)N[C@@H](CCC(N)=O)C(=O)N[C@@H](CC(C)C)C(=O)N[C@@H](CCC(=O)O)C(=O)N[C@@H](CC(N)=O)C(=O)O)[C@@H](C)O
IC50 ([1]; DRBI *1302): 16.9 µM

CC[C@H](C)[C@H](NC(=O)[C@H](CC(=O)O)NC(=O)[C@H](Cc1ccccc1)NC(=O)[C@H](CC(N)=O)NC(=O)[C@H](CCCNC(=N)N)NC(=O)[C@H](CCCNC(=N)N)NC(=O)[C@H](CC(=O)O)NC(=O)[C@H](CCCCN)NC(=O)[C@H](CC(C)C)NC(=O)[C@@H](NC(=O)[C@H](Cc1ccc(O)cc1)NC(=O)[C@H](CCC(=O)O)NC(=O)[C@H](CC(C)C)NC(=O)[C@H](CCCNC(=N)N)NC(=O)CN)[C@@H](C)O)C(=O)O
IC50 ([1]; DRBI *1302): 1.47 µM | IC50 ([2]; DRB4 *0101): 21.4 µM

CC[C@H](C)[C@H](NC(=O)[C@H](CS)NC(=O)[C@H](Cc1c[nH]cn1)NC(=O)[C@H](C)NC(=O)[C@H](C)NC(=O)[C@@H](NC(=O)[C@H](CC(C)C)NC(=O)[C@@H](NC(=O)[C@H](Cc1c[nH]c2ccccc12)NC(=O)[C@H](CCC(N)=O)NC(=O)[C@@H]1CCCN1C(=O)[C@@H](N)Cc1c[nH]cn1)C(C)C)[C@@H](C)O)C(=O)N[C@@H](CCCNC(=N)N)C(=O)N[C@@H](CC(N)=O)C(=O)N[C@@H](CCCCN)C(=O)O
IC50 ([3]; DRB1 *1101): 0.785 µM | IC50 ([1]; DRBI *1302): 1.17 µM | IC50 [4]: 1.32 µM

CSCC[C@H](NC(=O)[C@H](CCC(N)=O)NC(=O)[C@H](CC(C)C)NC(=O)[C@H](Cc1ccccc1)NC(=O)[C@H](CC(C)C)NC(=O)[C@@H](NC(=O)[C@H](Cc1c[nH]cn1)NC(=O)[C@H](CC(N)=O)NC(=O)[C@@H](N)CCCCN)C(C)C)C(=O)N[C@@H](CCSC)C(=O)N[C@@H](CC(N)=O)C(=O)N[C@H](C(=O)N[C@@H](CC(N)=O)C(=O)N[C@@H](CC(C)C)C(=O)N[C@@H](CCC(N)=O)C(=O)O)C(C)C
IC50 ([5]; DRB1 *0101): 0.012 µM | IC50 ([6]; DRB1 *0401): 0.032 µM | IC50 [7]: 0.757 µM | IC50 [8]: > 120 µM | IC50 ([1]; DRBI *1302): 0.036 µM | IC50 ([2]; DRB4 *0101): 0.022 µM | IC50 ([9]; DRB5 *0101): > 7.21 µM

C[C@H](NC(=O)[C@H](CC(=O)O)NC(=O)[C@H](CC(=O)O)NC(=O)[C@H](CC(N)=O)NC(=O)[C@H](Cc1c[nH]cn1)NC(=O)[C@H](CO)NC(=O)[C@H](CC(N)=O)NC(=O)[C@@H](NC(=O)[C@H](CC(=O)O)NC(=O)[C@H](Cc1ccccc1)NC(=O)[C@H](CCCCN)NC(=O)[C@H](CO)NC(=O)[C@H](Cc1ccc(O)cc1)NC(=O)[C@@H](NC(=O)[C@@H](N)CCC(N)=O)[C@@H](C)O)[C@@H](C)O)C(=O)O
IC50 [10]: > 55.9 µM | IC50 [7]: 54.6 µM | IC50 [8]: 7.73 µM | IC50 ([11]; DRB1 *0901): 31.3 µM | IC50 ([3]; DRB1 *1101): > 15.4 µM | IC50 ([1]; DRBI *1302): > 17.9 µM | IC50 ([2]; DRB4 *0101): > 138 µM

CC[C@H](C)[C@H](NC(=O)[C@H](CCC(N)=O)NC(=O)CNC(=O)[C@@H](NC(=O)[C@H](CCCNC(=N)N)NC(=O)[C@@H]1CCCN1C(=O)[C@H](CO)NC(=O)CNC(=O)[C@H](CC(=O)O)NC(=O)[C@H](CCC(=O)O)NC(=O)[C@H](CC(C)C)NC(=O)[C@@H](N)CCCNC(=N)N)[C@@H](C)O)C(=O)N[C@@H](Cc1ccccc1)C(=O)N[C@@H](CCCCN)C(=O)N[C@@H](CCC(N)=O)C(=O)O
IC50 [10]: 76.7 µM | IC50 [7]: 35.1 µM | IC50 [8]: > 33.3 µM | IC50 ([11]; DRB1 *0901): > 59.5 µM | IC50 ([1]; DRBI *1302): > 17.9 µM

CC[C@H](C)[C@H](NC(=O)[C@H](CCC(=O)O)NC(=O)[C@H](CCC(=O)O)NC(=O)[C@@H]1CCCN1C(=O)[C@@H](NC(=O)[C@H](CC(=O)O)NC(=O)[C@H](Cc1ccccc1)NC(=O)[C@H](CC(N)=O)NC(=O)[C@@H](N)CCCNC(=N)N)[C@@H](C)CC)C(=O)N[C@@H](CCCCN)C(=O)N[C@@H](CCC(N)=O)C(=O)N[C@@H](CC(C)C)C(=O)N[C@@H](CCC(N)=O)C(=O)N[C@@H](CCC(N)=O)C(=O)N[C@@H](Cc1ccccc1)C(=O)O
IC50 ([1]; DRBI *1302): > 15.4 µM

CC[C@H](C)[C@H](NC(=O)[C@H](CO)NC(=O)[C@H](CCC(=O)O)NC(=O)[C@H](CC(C)C)NC(=O)[C@@H](NC(=O)[C@H](C)NC(=O)CNC(=O)[C@H](Cc1ccc(O)cc1)NC(=O)[C@@H](NC(=O)[C@H](CO)NC(=O)[C@H](Cc1ccc(O)cc1)NC(=O)[C@H](CC(=O)O)NC(=O)[C@H](Cc1ccc(O)cc1)NC(=O)[C@@H](N)Cc1ccc(O)cc1)C(C)C)[C@@H](C)O)C(=O)N[C@H](C(=O)O)[C@@H](C)O
IC50 ([1]; DRBI *1302): 8.92 µM

ALQAQKEAISPPDAA
IC50 ([1]; read-out: DRBI *1302): > 12.4 µM

AYKDLCIVY
IC50 [12, 14]: 5.2 µM | IC50 [13, 15]: 0.029 µM

CIVYRDCIAYAACHK
IC50 ([1]; read-out: DRBI *1302): 12.9 µM | IC50 ([2]; read-out: DRB4 *0101): 2.58 µM

EFAFKDLFVVYRDS
IC50 ([5]; read-out: DRB1 *0101): 8.94 µM | IC50 ([11]; read-out: DRB1 *0901): 1.88 µM

HQAISPRTLNSPAIF
IC50 ([1]; read-out: DRBI *1302): 1.04 µM

KPAVYTKVVHYRKWI
IC50 ([1]; read-out: DRBI *1302): 1.95 µM | IC50 ([2]; read-out: DRB4 *0101): 4.58 µM

MTNLAALFPPEGVSI
IC50 ([1]; read-out: DRBI *1302): 1.31 µM

QKQLLTNHLINTPK
IC50 ([5]; read-out: DRB1 *0101): 0.675 µM | IC50 ([6]; read-out: DRB1 *0401): 0.228 µM

RFHMAGITF
IC50 [12, 14]: 0.635 µM | IC50 [13, 15]: 0.0014 µM

RMTSLKINEL
IC50 [12, 16]: 40.3 µM | IC50 [12, 14]: 40.3 µM | IC50 [13, 17]: 0.014 µM | IC50 [13, 15]: 0.014 µM

RYITNIAGHY
IC50 [12, 16]: 0.138 µM | IC50 [13, 17]: 0.00093 µM

RYRNIAGHY
IC50 [12, 14]: 0.138 µM | IC50 [13, 15]: 0.00093 µM

SFFMNRFYI
IC50 [12, 14]: 0.2 µM | IC50 [13, 15]: 1.02 µM

TFCCKCDSTF
IC50 [13, 17]: 1.17 µM

TLERPKTLSPQKNGV
IC50 ([5]; read-out: DRB1 *0101): 10.1 µM

VAQVRGGMVFELANS
IC50 ([5]; read-out: DRB1 *0101): 0.228 µM

VASLLTTAEVVVTE
IC50 ([5]; read-out: DRB1 *0101): 0.604 µM

VYREQNPE
IC50 [12, 16]: 10 µM | IC50 [13, 17]: 66 µM

YLVTGERGFFYTKPT
IC50 ([3]; read-out: DRB1 *1101): 9.34 µM | IC50 ([1]; read-out: DRBI *1302): 17.9 µM | IC50 ([9]; read-out: DRB5 *0101): 11.9 µM
